Test [1] concerns the target porcine pancreatic lipase (Sus scrofa, UniProt P00591). Briefly: Anti-lipase activity (PNPB hydrolysis). The test is classed as biochemical. Particulars: five dilutions 40, 100, 200, 300, 400 µg/ml; orlistat positive control.
In test [2] the target is porcine pancreatic amylase enzyme (Sus scrofa, UniProt P00690). Briefly: α-Amylase inhibitory activity (DNSA method). Conditions: five concentrations 1, 10, 50, 100, 500 µg/ml; acarbose positive control.

By UniProt entry, the sequences of proteins in these tests, tags left out. Residues count along the entry.
UniProt P00591, whole entry: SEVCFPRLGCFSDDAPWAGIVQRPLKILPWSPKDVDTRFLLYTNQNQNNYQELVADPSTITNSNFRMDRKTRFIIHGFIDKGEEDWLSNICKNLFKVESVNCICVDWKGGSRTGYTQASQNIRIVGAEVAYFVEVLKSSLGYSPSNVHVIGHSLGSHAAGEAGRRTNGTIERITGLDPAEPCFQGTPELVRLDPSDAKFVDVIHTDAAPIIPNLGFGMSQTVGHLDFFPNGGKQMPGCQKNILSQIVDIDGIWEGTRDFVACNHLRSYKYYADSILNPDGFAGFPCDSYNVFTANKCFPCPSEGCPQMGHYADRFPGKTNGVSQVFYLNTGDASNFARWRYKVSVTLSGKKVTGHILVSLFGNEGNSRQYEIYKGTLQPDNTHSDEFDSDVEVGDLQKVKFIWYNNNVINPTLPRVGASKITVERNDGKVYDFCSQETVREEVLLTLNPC
UniProt P00690, 16-511 limits assumed: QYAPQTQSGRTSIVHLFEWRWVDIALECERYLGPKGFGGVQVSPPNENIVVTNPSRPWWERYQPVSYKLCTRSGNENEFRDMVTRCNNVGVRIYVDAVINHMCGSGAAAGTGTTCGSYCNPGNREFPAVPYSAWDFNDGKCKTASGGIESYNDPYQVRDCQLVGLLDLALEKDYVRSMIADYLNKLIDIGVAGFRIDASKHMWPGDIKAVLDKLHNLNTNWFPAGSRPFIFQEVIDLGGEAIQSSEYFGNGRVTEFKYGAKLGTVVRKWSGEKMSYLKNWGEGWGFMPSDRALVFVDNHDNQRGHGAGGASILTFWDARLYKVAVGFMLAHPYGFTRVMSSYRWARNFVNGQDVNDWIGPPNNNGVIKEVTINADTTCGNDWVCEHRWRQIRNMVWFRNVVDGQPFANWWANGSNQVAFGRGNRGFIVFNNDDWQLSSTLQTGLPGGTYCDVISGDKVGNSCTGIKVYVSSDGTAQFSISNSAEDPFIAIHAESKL

Values after ≈ are worked out from the molar mass of the structure shown.

Turning to `COC(=O)Cc1cc2c(cc1C(=O)c1ccc(Cl)cc1Cl)OCO2`, the “IC50 (µg/ml) Lipase” value in test [1] was > 400 µg/mL. The “IC50 (µg/ml) α-amylase” value in test [2] worked out at 3.94 ± 2.01 µg/mL (≈ 10.7 µM).
The corresponding values for `O=C(O)Cc1cc2c(cc1C(=O)c1ccc(Cl)cc1Cl)OCO2` are 206.6 ± 1.96 µg/mL (≈ 585 µM) and 9.50 ± 0.56 µg/mL (≈ 26.9 µM).
